Experimental data: PubChem BioAssay AID645 (SRMLSC, 2007)
Only a part is listed here, and it is no random draw. Calls of active or inactive are those of the source.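 Rule for the calls: active = HER2 level under 5% of the carrier-only control; inconclusive = no clear call, values can overlap the other calls; inactive = the rest.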

The chains behind the UniProt entries cited, without tags or fusion partners.
UniProt P04626, whole entry: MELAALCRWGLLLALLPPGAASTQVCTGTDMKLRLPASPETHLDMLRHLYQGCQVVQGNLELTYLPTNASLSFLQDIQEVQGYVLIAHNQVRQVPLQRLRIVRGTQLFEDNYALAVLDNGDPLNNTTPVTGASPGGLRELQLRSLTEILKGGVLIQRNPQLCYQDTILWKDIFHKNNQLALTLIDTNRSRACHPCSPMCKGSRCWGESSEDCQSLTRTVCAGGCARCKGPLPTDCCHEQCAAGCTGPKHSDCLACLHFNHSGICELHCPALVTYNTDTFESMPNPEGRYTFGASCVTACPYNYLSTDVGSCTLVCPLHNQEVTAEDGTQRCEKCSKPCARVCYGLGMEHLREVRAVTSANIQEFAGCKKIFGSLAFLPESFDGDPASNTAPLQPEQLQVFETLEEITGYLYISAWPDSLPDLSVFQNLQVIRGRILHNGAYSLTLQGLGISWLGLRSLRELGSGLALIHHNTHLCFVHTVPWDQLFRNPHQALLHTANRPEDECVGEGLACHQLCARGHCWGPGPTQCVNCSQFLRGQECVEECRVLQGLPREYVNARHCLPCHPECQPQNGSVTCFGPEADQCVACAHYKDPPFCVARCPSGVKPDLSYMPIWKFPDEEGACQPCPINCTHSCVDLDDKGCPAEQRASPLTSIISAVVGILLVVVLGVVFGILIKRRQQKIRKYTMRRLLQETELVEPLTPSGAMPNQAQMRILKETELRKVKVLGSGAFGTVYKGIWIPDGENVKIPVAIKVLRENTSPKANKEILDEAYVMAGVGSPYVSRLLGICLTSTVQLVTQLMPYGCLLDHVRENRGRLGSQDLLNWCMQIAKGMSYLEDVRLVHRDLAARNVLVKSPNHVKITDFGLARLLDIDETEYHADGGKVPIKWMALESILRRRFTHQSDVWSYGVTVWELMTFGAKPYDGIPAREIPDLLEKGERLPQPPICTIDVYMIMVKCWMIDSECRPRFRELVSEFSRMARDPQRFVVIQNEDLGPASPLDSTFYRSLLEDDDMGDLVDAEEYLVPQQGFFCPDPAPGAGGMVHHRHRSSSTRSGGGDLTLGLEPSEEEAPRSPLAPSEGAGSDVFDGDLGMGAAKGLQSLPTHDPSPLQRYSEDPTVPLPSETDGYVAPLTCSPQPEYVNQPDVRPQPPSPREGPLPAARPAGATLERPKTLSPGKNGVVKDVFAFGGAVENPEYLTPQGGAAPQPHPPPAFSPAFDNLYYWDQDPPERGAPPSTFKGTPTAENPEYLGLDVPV

Target: Receptor tyrosine-protein kinase erbB-2 (Homo sapiens) (UniProt P04626)
Assay: reducers of endogenous HER2 protein levels – SKBR-3 cells, AlphaScreen, 66K library, primary screen (AID 645);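 note: 100% = DMSO carrier and 0% = 500 nM PU-H71 HSP90 inhibitor; lower value means stronger loss of Her2 protein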
Conditions: SKBR-3 HER2 protein level, 18-24 h, at 10 µM, active compounds read low

SMILES	HER2 level % of control
CCN(CC)CC(O)COC(=O)C(O)(c1ccccc1)C1CCCCC1 (stereo not drawn)	inactive: 106%
CP(=O)(Oc1ccccc1)N1CCOC1=O (stereo not drawn)	inactive: 81.5%
COc1ccccc1OP(C)(=O)Nc1c(C)n(C)n(-c2ccccc2)c1=O (stereo not drawn)	inactive: 141%
CP(=O)(Nc1ccccn1)Oc1ccccc1 (stereo not drawn)	inactive: 90.7%
COc1ccccc1OP(C)(=O)Nc1ccc(C)c(C)c1 (stereo not drawn)	inactive: 79.9%
Cc1nc2ccc3ccccc3c2o1.O=[N+]([O-])c1cc([N+](=O)[O-])c(O)c([N+](=O)[O-])c1	inactive: 106%
CP(=O)(Nc1ccccc1F)Oc1ccccc1 (stereo not drawn)	inactive: 116%
CCOP(C)(=S)SCC(=O)NC(C)(CC)C(=O)O (stereo not drawn)	inactive: 108%
CP(=O)(Nc1ccc2c(c1)OCCO2)Oc1ccccc1 (stereo not drawn)	inactive: 98.2%
Cc1ccccc1NP(C)(=O)Nc1ccccc1C	inactive: 111%
CN(C)CCOC(=O)C(O)(c1ccccc1)C1CCCCC1 (stereo not drawn)	inactive: 104%
Cc1nc2ccc3ccccc3c2s1.O=[N+]([O-])c1cc([N+](=O)[O-])c(O)c([N+](=O)[O-])c1	inactive: 120%
Cc1ccc(C)c(NP(C)(=O)Oc2ccccc2)c1 (stereo not drawn)	inactive: 96.3%
Cc1ccc(NP(C)(=O)Oc2ccccc2)c(C)c1 (stereo not drawn)	inactive: 88.9%
COc1ccccc1OP(C)(=O)Nc1ccc(C)cc1 (stereo not drawn)	inactive: 92.7%
CP(=O)(NC(=O)Nc1ccccc1)Oc1ccccc1 (stereo not drawn)	inactive: 299%
CCOP(C)(=S)SCC(=O)NC(C)C(=O)O (stereo not drawn)	inactive: 122%
CP(=S)(Nn1cnnc1)Oc1ccccc1 (stereo not drawn)	inactive: 93.2%
